Assay results: patent publication US5338845A, “Aspergillus species, cyclic dimeric dipeptide derivative substance P antagonist biosynthetic products thereof, and process for preparation thereof” (Sterling Winthrop Inc., priority 1992, dated 1994)

The chains behind the UniProt entries cited, without tags or fusion partners.
UniProt P30547, whole entry: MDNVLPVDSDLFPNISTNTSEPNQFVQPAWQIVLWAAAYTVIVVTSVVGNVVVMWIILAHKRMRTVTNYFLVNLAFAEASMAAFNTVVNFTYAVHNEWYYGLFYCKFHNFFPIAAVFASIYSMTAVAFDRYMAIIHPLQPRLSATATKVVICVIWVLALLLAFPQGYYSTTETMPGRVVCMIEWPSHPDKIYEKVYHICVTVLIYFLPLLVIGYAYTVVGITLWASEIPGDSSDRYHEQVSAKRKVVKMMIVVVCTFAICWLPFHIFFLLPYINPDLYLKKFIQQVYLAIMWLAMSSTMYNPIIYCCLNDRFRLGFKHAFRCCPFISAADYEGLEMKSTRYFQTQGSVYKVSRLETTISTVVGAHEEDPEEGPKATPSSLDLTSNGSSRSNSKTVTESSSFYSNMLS
UniProt P25103, whole entry: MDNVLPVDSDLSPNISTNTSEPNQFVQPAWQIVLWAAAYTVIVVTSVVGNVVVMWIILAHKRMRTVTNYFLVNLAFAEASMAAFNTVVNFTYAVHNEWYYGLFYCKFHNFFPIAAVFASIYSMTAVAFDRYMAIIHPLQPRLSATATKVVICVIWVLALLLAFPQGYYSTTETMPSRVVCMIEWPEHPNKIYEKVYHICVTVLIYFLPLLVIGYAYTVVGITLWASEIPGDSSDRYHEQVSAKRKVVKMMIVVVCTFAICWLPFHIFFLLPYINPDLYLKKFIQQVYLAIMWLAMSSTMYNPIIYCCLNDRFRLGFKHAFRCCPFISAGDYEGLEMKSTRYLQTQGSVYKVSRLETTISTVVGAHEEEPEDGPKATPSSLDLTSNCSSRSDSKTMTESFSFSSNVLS

Key:
[1] = biological target: NK1 (Cavia porcellus, UniProt P30547); test: Substance P NK1 receptor binding, tritiated Substance P, guinea pig submaxillary gland tissue; details: read-out: Ki Guinea Pig Submaxillary Gland Tissue (Substance P antagonist potency); tritiated Substance P 0.75 nM; Ki calculated from IC50 by Cheng-Prusoff
Protocol: (§1) As stated above the compounds of Formula I are useful as Substance P antagonists and therefore as analgesic and/or antiinflammatory agents. Substance P antagonist NK1 receptor binding activity was determined using guinea pig submaxillary gland tissue and human astrocytoma cells.
Submaxillary glands from both sexes of Hartley guinea pigs were obtained from Pel Freeze Biologicals, Rogers, Arkansas by overnight express in a plastic bag kept cold in wet ice. Extraneous tissue was removed and the glands were homogenized (Brinkman Polytron 10TS generator, 3-4 10-second bursts at a setting of 10) in ice cold buffer C (sodium chloride, 120 mM; potassium chloride, 5 mM; tromethamine [TRIS], 50 mM; pH adjusted to 7.40 with dilute hydrochloric acid; 100 mL for 50 submaxillary glands). The homogenate was centrifuged (16,000×g) at 4° C. for 15 minutes and the supernatant fluid was discarded. In order to release any native bound Substance P from its receptor approximately 200 mL of buffer B (potassium chloride, 500 mM; tromethamine, 50 mM; ethylenediaminetetraacetic acid [EDTA], 10 mM; pH adjusted to 7.40 with dilute hydrochloric acid) was added to the pellet, which was resuspended by low speed homogenization. The suspension was incubated at ice temperature for 30 minutes with periodic swirling and centrifuged, and the supernatant liquid was discarded. Tromethamine buffer (50 mM, pH adjusted to 7.40 with dilute hydrochloric acid, 200 mL) was added, the pellet was resuspended, the suspended mixture was centrifuged, the supernatant fluid was discarded, and this procedure was repeated. About twice the pellet volume of tromethamine buffer was added to the pellet and the resulting submaxillary gland tissue preparation (1.0 to 1.5 mL) was stored at -70° C. Using serum bovine albumin as the standard the protein yield was determined by the Bradford method (Bio-Rad, Richmond, Calif.) to be 7-8 mg/mL or about 250 mg from 50 submaxillary glands.
To test for receptor binding a sample of the submaxillary gland tissue preparation was thawed on ice and rehomogenized with a glass homogenizer (Dounce). To a polystyrene test tube were added an aliquot of the resulting homogenate (200 μL containing 150-300 μg of protein), tromethamine buffer (100 μL), protease buffer (aqueous chymostatin, 5 μg/mL; leupeptin, 10 μg/mL; bacitracin, 100 μg/mL; manganous chloride, 3 mM; bovine serum albumin, 0.05%; tromethamine, 50 mM; pH adjusted to 7.40 with dilute hydrochloric acid; 100 μL) and tritiated Substance P (44-54 Ci/millimole, 0.75 nM in protease buffer, 100 μL). Dimethylsulfoxide alone (5 μL) or a dimethylsulfoxide solution (5 μL) of the test compound (amount such that 1:100 dilution gave the desired concentration thereof) was added to the tube. The mixture was allowed to reach equilibrium for 20-30 minutes, then filtered (Whatman GF/C filter, Brandel harvester). The residue on the filter was washed three times with tromethamine buffer (3 mL each time) and its radioactivity was measured in a liquid scintillation counter (Beckman LS5000) (x=number of counts per minute with test compound, y=number of counts per minute without test compound). Adding a large excess of untritiated Substance P (1 μM) to the protease buffer and carrying out the procedure without test compound gave a measure (z=number of counts per minute) of the nonspecific binding, which was generally less than 10% of the total binding. The dissociation constant (Kd) for receptor binding was determined by varying the concentration of tritiated Substance P. The following calculations were made:
L=1n(% inhibition/% bound).
Values of L for each test compound were plotted against the corresponding values of the log of the concentration of the test compound, a linear regression line was constructed, and the concentration of the test compound corresponding to L=0, which is defined as the IC50 value, was determined. […]

[2] = biological target: NK1 (Homo sapiens, UniProt P25103); test: Substance P NK1 receptor binding, 125I-Bolton Hunter Substance P, human astrocytoma cells (U-373 MG); details: read-out: Ki Human Astrocytoma Cells (Substance P antagonist potency), U-373 MG cells, Ki calculated from IC50
Protocol: as §1
Human astrocytoma cells (U--373 MG, ATCC No. HTB 17) were cultured in 75-mL flasks in an aqueous medium containing horse serum (heat inactivated, 10%), minimum essential amino acids (2%), minimum essential vitamin solution (2%), and an aqueous solution of penicillin (10,000 units/mL) and streptomycin (10,000 μg/mL) (Penn-Strep, 2%), which was sterilized by filtration through a disposable filter (Nalgene, VWR Cat. No. 28199-585). The medium was replaced twice weekly. Cells were passaged (1:4 split) by removing the medium and adding aqueous trypsin (0.25%, 8 mL/flask). The flasks were swirled for 30 seconds, the aqueous trypsin was removed, and the cells were incubated for 5 minutes at room temperature, then washed twice with fresh medium (7 mL each time). Poly-D-lysine solution (50 μg/mL in aqueous phosphate saline buffer, 0.25 mL) was added to each well of a sterile 96-well […] plate (Corning), which was then incubated at room temperature for 40 minutes. The poly-D-lysine solution was removed, each well was washed twice with aqueous phosphate saline buffer (0.25 mL), cells were added (0.2 mL/well), and the plate was incubated at 37° C. for two days in an oxygen-carbon dioxide (95:5) atmosphere to provide a monolayer of 1.4-1.9×10^4 cells per well.
To test for receptor binding the aqueous phosphate saline buffer was removed from each well, the cell monolayer was washed three times with assay buffer (aqueous 2-[4-(2-hydroxyethyl)-1-piperazinyl]ethanesulfonic acid [HEPES], 25 mM; potassium chloride, 5.8 mM; monopotassium phosphate, 2.2 mM; sodium chloride, 115 mM; magnesium sulfate, 0.6 mM; calcium chloride, 1.8 mM; bovine serum albumin, 1%; glucose, 5 mM; thiorphan, 1 μM; and bacitracin, 40 μg/mL; pH adjusted to 7.40 with dilute hydrochloric acid; 0.25 mL each time). To each well was then added assay buffer alone (0.1 mL) or a mixture (0.1 mL) with assay buffer as diluent containing ^125 I-Bolton Hunter Substance P (Amersham, Inc., Arlington Heights, Ill.; 0.1 nanomole) and test compound in amount to give the desired concentration thereof or, to determine nonspecific binding, unlabelled Substance P (0.1 micromole) and the plate was incubated at 25° C. for 90 minutes. Excess assay buffer or Substance P mixture was then removed and each well was washed four times with assay buffer (0.25 mL each time). The cells were detached from each well by addition of aqueous octoxynol (Triton X-100, 0.2%, 140 μL) containing bovine serum albumin (1 mg/L). The radioactivity of part (100 μL) of the detachment mixture was measured in a gamma ray counter (Packard Cobra). Kd and IC50 values were determined and a Ki value was calculated for each test compound as described above.

SMILES | pKi [1] | pKi [2]
O=C1N[C@@H](Cc2ccccc2)C(=O)N2[C@H]3Nc4ccccc4[C@@]3([C@]34C[C@H]5C(=O)N[C@@H](Cc6ccc(Cl)cc6)C(=O)N5[C@H]3Nc3ccccc34)C[C@@H]12 | 5.54 | 
C=CC[C@@H]1NC(=O)[C@@H]2C[C@]3([C@]45C[C@H]6C(=O)N[C@@H](Cc7ccccc7)C(=O)N6[C@H]4Nc4ccccc45)c4ccccc4N[C@@H]3N2C1=O | 5.24 | 
COc1ccc2c(c1)[C@@]1([C@]34C[C@H]5C(=O)N[C@@H](Cc6ccccc6)C(=O)N5[C@H]3Nc3ccccc34)C[C@H]3C(=O)N[C@@H](Cc4ccccc4)C(=O)N3[C@H]1N2 | 6.05 | 
O=C1N[C@@H](Cc2ccccc2)C(=O)N2[C@H]3Nc4ccccc4[C@@]3([C@]34C[C@H]5C(=O)N[C@@H](Cc6ccccc6)C(=O)N5[C@H]3Nc3cccc(F)c34)C[C@@H]12 | 5.20 | 
O=C1N[C@@H](Cc2ccc(F)cc2)C(=O)N2[C@H]3Nc4ccccc4[C@@]3([C@]34C[C@H]5C(=O)N[C@@H](Cc6ccc(F)cc6)C(=O)N5[C@H]3Nc3ccccc34)C[C@@H]12 | 5.34 | 
Cc1ccc2c(c1)N[C@@H]1N3C(=O)[C@H](Cc4ccccc4)NC(=O)[C@@H]3C[C@]21[C@]12C[C@H]3C(=O)N[C@@H](Cc4ccccc4)C(=O)N3[C@H]1Nc1ccccc12 | 5.11 | 
O=C1N[C@@H](Cc2ccccc2)C(=O)N2[C@H]3Nc4ccccc4[C@@]3([C@]34C[C@H]5C(=O)N[C@@H](Cc6ccccc6)C(=O)N5[C@H]3Nc3ccc(F)cc34)C[C@@H]12 | 5.02 | 5.73
O=C1N[C@@H](Cc2ccccc2F)C(=O)N2[C@H]3Nc4ccccc4[C@@]3([C@]34C[C@H]5C(=O)N[C@@H](Cc6ccccc6F)C(=O)N5[C@H]3Nc3ccccc34)C[C@@H]12 | 5.24 | 6.20
O=C1N[C@@H](Cc2ccccc2)C(=O)N2[C@H]3Nc4cc(F)ccc4[C@@]3([C@]34C[C@H]5C(=O)N[C@@H](Cc6ccccc6)C(=O)N5[C@H]3Nc3cc(F)ccc34)C[C@@H]12 | 5.80 | 6.77
O=C1N[C@@H](Cc2ccccc2)C(=O)N2[C@H]3Nc4ccccc4[C@@]3([C@]34C[C@H]5C(=O)N[C@@H](Cc6cccc(F)c6)C(=O)N5[C@H]3Nc3ccccc34)C[C@@H]12 | 5.59 | 6.42
O=C1N[C@@H](Cc2ccccc2)C(=O)N2[C@H]3Nc4cccc(F)c4[C@@]3([C@]34C[C@H]5C(=O)N[C@@H](Cc6ccccc6)C(=O)N5[C@H]3Nc3cccc(F)c34)C[C@@H]12 | < 4.40 | 
CC(C)C[C@@H]1NC(=O)[C@@H]2C[C@]3([C@]45C[C@H]6C(=O)N[C@@H](Cc7ccccc7)C(=O)N6[C@H]4Nc4ccccc45)c4ccccc4N[C@@H]3N2C1=O | 5.39 | 5.40
CCC[C@@H]1NC(=O)[C@@H]2C[C@]3([C@]45C[C@H]6C(=O)N[C@@H](Cc7ccccc7)C(=O)N6[C@H]4Nc4ccccc45)c4ccccc4N[C@@H]3N2C1=O | < 4.40 | 
O=C1N[C@@H](Cc2ccccc2)C(=O)N2[C@H]3Nc4ccccc4[C@@]3([C@]34C[C@H]5C(=O)N[C@@H](Cc6ccccc6)C(=O)N5[C@H]3Nc3cc(F)ccc34)C[C@@H]12 | 5.64 | 6.59
O=C1N[C@@H](Cc2ccc(Cl)cc2)C(=O)N2[C@H]3Nc4ccccc4[C@@]3([C@]34C[C@H]5C(=O)N[C@@H](Cc6ccc(Cl)cc6)C(=O)N5[C@H]3Nc3ccccc34)C[C@@H]12 | < 4.40 | 
O=C1N[C@@H](Cc2cccc(F)c2)C(=O)N2[C@H]3Nc4ccccc4[C@@]3([C@]34C[C@H]5C(=O)N[C@@H](Cc6cccc(F)c6)C(=O)N5[C@H]3Nc3ccccc34)C[C@@H]12 | 5.94 | 6.77
O=C1N[C@@H](Cc2ccccc2)C(=O)N2[C@H]3Nc4ccc(F)cc4[C@@]3([C@]34C[C@H]5C(=O)N[C@@H](Cc6ccccc6)C(=O)N5[C@H]3Nc3ccc(F)cc34)C[C@@H]12 | 4.70 | 5.55
CC=CC[C@@H]1NC(=O)[C@@H]2C[C@]3([C@]45C[C@H]6C(=O)N[C@@H](Cc7ccccc7)C(=O)N6[C@H]4Nc4ccccc45)c4ccccc4N[C@@H]3N2C1=O | 5.49 | 5.69
CC(C)[C@@H]1NC(=O)[C@@H]2C[C@]3([C@]45C[C@H]6C(=O)N[C@@H](Cc7ccccc7)C(=O)N6[C@H]4Nc4ccccc45)c4ccccc4N[C@@H]3N2C1=O | 4.64 | 
CC(C[C@@H]1NC(=O)[C@@H]2C[C@]3([C@]45C[C@H]6C(=O)N[C@@H](Cc7ccccc7)C(=O)N6[C@H]4Nc4ccccc45)c4ccccc4N[C@@H]3N2C1=O)C(F)(F)F (some centres unmarked) | 5.12 | 

pKi: −log10 of the molar value.
